PMC7615311 (Science (New York, N.Y.), 2023)

Tests used:
Type in all cases: cell-based, human
MDA-MB-175 cells = assay: decryptM phosphoproteome profiling in MDA-MB-175 cells
BT-474 cells = assay: decryptM phosphoproteome profiling in BT-474 cells
SK-BR-3 cells = assay: decryptM phosphoproteome profiling in SK-BR-3 cells

Measured: impact on the cellular phosphoproteome

trastuzumab: breast cancer therapeutic antibody presumed to block signaling by preventing HER2 dimerization
no potent impact: all assays above
